Measured values as given in patent US4013507A, “Ionene polymers for selectively inhibiting the vitro growth of malignant cells” (California Institute of Technology, priority 1975, dated 1977).

Experiment: in vivo
Details: mouse
Description: Due to the high positive charge density and high water solubility, ionenes strongly interact with a wide variety of cell materials.

In the case of `C[N+]1(C)CCCC1`, the LD50 (ip) was 100 to 200 mg/kg and the LD50 (po) was over 1000 mg/kg.
